Test results taken from US20220251158A1, “INTERMEDIATE FILAMENT-DERIVED PEPTIDES AND THEIR USES” (UNIVERSITAT DE LLEIDA, priority 2019, published 2022).

Tests used:
Assay type in all cases: cell-based
mouse splenocytes = assay: Cell death (annexin V expression) of mouse splenocytes cultured with peptide fragments; settings: splenocytes from NOD, NOD.RAG2−/− and C57Bl/6, 24 hours
Protocol: HL-60, Jurkat and NALM-6 cells were grown and maintained in complete culture medium in a humidified 5% CO2, atmosphere at 37° C. […] Human splenocytes from buffy coats were collected by density gradient using Histopaque 1077 (Histopaque®-1077, 10771 sigma) as described elsewhere (Johnston, L., Harding, S. A. & La Flamme, A. C. Comparing methods for ex vivo characterization of human monocyte phenotypes and in vitro responses. Immunobiology 2015, 220, 1305-1310). Cells from bone marrow were obtained disrupting femur and tibia as explained elsewhere too (Liu, X. & Quan, N. Immune Cell Isolation from Mouse Femur Bone Marrow. Bio-protocol 5, 2015). […] After 1 hour, 24 hours or 48 hours, cells were analysed by flow cytometry and culture supernatants stored at −80° C. until use.
For cell death and apoptosis analysis, 400.000 of primary cells or 100.000 of cell line cells were incubated in 96-well plates in 200 μL of complete culture medium for 24 h at 37° C. and 5% CO2 in the absence or presence of 55 μM of different peptides. After 1 hour, 24 hours or 48 hours, apoptosis was measured by CFBlue Annexin V Apoptosis Detection Kit with PI (ANXVKCFB-100T, Immunostep), following kit protocol. […] Cell suspensions were analysed by flow cytometry using FACS CANTO II instrumentation (BD, Biosciences, San Jose, Calif.) and Flowjo (version 8.7) software.

[1] = test system: human PBMC (peripheral blood mononuclear cells); assay: Pro-inflammatory cytokine production by human PBMC
Protocol: FIG. 9—Concentrations of different cytokines produced by human PBMC cells cultured with peptides. 4×10^5 cells were incubated per well with peptide 72, or DIF-P, or DIF-P3K, or DIF-P8R, or Staurosporine, or Nigericine or without stimulus for 24 hours or 48 hours before collecting the supernatant. In the case of Staurosporine and Nigericine the production of cytokines was only analysed after 24 hours (*=p<0.05).
(§1) Culture supernatants from mice proliferation assays were collected and IL-2, IL-4, IL-6, IFN-γ, IL-10, TNF-α and IL-17 cytokine amounts analysed by flow cytometry using CBA kit (560485, BD). For human cell cultures, the Legendplex Kit was used (BioLegend, 740502), which studied cytokines IL-12p70, TNF-α, IL-6, IL-4, IL-10, IL-1β, arginase, IL-1st, IL-12p40, IL-23, IFN-γ and IP-10.
(§2) The cytolytic activity (induction of apoptosis and/or pyroptosis) and production of pro-inflammatory cytokines in cell cultures have been analysed for peptides DIF-P, DIF-P3K and DIF-P8R, using peptide 72 as a negative control, in cultures of human PBMC (peripheral blood mononuclear cells). The induction of apoptosis and/or pyroptosis, and cell death was detected by flow cytometry analysis, determining the expression (presence) of annexin V in the cell membrane, and the staining of the cell nucleus with propidium iodide, respectively (FIG. 6). […] The production of pro-inflammatory cytokines (IL-6, IL-1β, TNF-α, IL-12p40, IL-23, IP-10, IFN-γ) is determined after incubation with the stimulus after 24 or 48 hours (FIG. 9).

[2] = test system: human PBMC (peripheral blood mononuclear cells); assay: Apoptosis/pyroptosis and cell death in human PBMC (annexin V/PI, Caspase-1, Caspase-3)
Protocol: FIG. 6—Representative dot plots of apoptosis assay of human PBMC cells after culturing them with different peptides. Annexin V and PI positive cells were analysed after culturing 4×10^5 cells for 1 hour, 24 hours or 48 hours with peptide 72, or DIF-P, or DIF-P3K, or DIF-P8R or without stimulus (n=4).
(§3) FIG. 7—Representative histograms of activated (cleaved) caspase-1 positive cells from human PBMC cultured with different peptides. 4×10^5 PBMC cells were cultured with peptide 72, or DIF-P, or DIF-P3K, or DIF-P8R, or Nigericin (as a positive control) or without stimulus for an hour and activated caspase-1 was measured with 660-YVAD-FMK (n=4). Positive cell percentage is resumed on the right of the figure (*=p<0.05).
as §3, with “8—Representative” for “7—Representative”, “caspase-3” for “caspase-1”, “staurosporine” for “Nigericin”, “FAM-DEVD-FMK” for “660-YVAD-FMK”, “(*=p<0.05, **=p<0.01).” for “(*=p<0.05).”
For cell death and apoptosis analysis, 400.000 of primary cells or 100.000 of cell line cells were incubated in 96-well plates in 200 μL of complete culture medium for 24 h at 37° C. and 5% CO2 in the absence or presence of 55 μM of different peptides. After 1 hour, 24 hours or 48 hours, apoptosis was measured by CFBlue Annexin V Apoptosis Detection Kit with PI (ANXVKCFB-100T, Immunostep), following kit protocol. For cleaved caspasa-3 intracellular staining, mononuclear cells were permeabilised following the manufacturer's instructions of the FoxP3 Staining Buffer Set (00-5523-00, eBioscience) and the cleaved caspasa-3-Pacific Blue (8788S, Cell Signalling) was used for staining. Cell suspensions were analysed by flow cytometry using FACS CANTO II instrumentation (BD, Biosciences, San Jose, Calif.) and Flowjo (version 8.7) software.
Fluorescent labeled inhibitors of caspases (FLICA) probe assays were performed in order to check intracellular activation of specific caspases and confirm previously obtained flow cytometry results by cleaved caspasa-3 antibody. FLICA staining was achieved following manufacturer's instructions, as described elsewhere (Doitsh, G. et al. Cell death by pyroptosis drives CD4 T-cell depletion in HIV-1 infection. Nature 2014, 505, 509-514), after incubating cells with 55 μM of different Peripherin peptides for 1 hour or 24 hours.
as §2

[3] = test system: NOD.RAG-2−/− mouse splenocytes; assay: Proliferation assay (CFSE); settings: versus control peptide 72, in vitro cultures
Protocol: FIG. 16—Proliferation assay. No proliferation is observed for NOD.RAG-2−/− mouse splenocytes cultured with DIF-P. Peptide 72 is used as a negative control.
HL-60, Jurkat and NALM-6 cells were grown and maintained in complete culture medium in a humidified 5% CO2, atmosphere at 37° C. […] Human splenocytes from buffy coats were collected by density gradient using Histopaque 1077 (Histopaque®-1077, 10771 sigma) as described elsewhere (Johnston, L., Harding, S. A. & La Flamme, A. C. Comparing methods for ex vivo characterization of human monocyte phenotypes and in vitro responses. Immunobiology 2015, 220, 1305-1310). Cells from bone marrow were obtained disrupting femur and tibia as explained elsewhere too (Liu, X. & Quan, N. Immune Cell Isolation from Mouse Femur Bone Marrow. Bio-protocol 5, 2015). Monocytes and neutrophils from bone marrow were purified using the Stemcell kits (19861 and 19762 subsequently) and the kit protocol was followed. Cells were incubated in 96-well tissue culture plates (4×10^5/well for primary cells and 1×10^5 for cells lines) at 37° C. in 5% CO2 in complete culture medium using 55 μM of different Peripherin peptides. For proliferation assays, cells were labelled with CFSE (C34554, life technologies). After 1 hour, 24 hours or 48 hours, cells were analysed by flow cytometry and culture supernatants stored at −80° C. until use. […]

[4] = test system: NOD.RAG-2−/− mouse splenocytes; assay: Cytokine release by NOD.RAG-2−/− mouse splenocytes; settings: 24 h and 48 h
Protocol: FIG. 1—Cytokine concentration from mouse splenocytes cultured with peptides. Results of the analysis of the supernatants of cells incubated for 24 h and 48 h with peptides 72 and DIF-P (n=4); (A) splenocytes from NOD.RAG-2−/− mice; (B) splenocytes from NOD mice.
FIG. 10—Concentrations of different cytokines produced by NOD.RAG2−/− splenocytes cultured with peptides. 4×10^5 cells were incubated per well with peptide 72, or DIF-P, or DIF-P3K, or DIF-P8R, or without stimulus for 24 hours or 48 hours before collecting the supernatant (*=p<0.05, **=p<0.01).
HL-60, Jurkat and NALM-6 cells were grown and maintained in complete culture medium in a humidified 5% CO2, atmosphere at 37° C. […] Human splenocytes from buffy coats were collected by density gradient using Histopaque 1077 (Histopaque®-1077, 10771 sigma) as described elsewhere (Johnston, L., Harding, S. A. & La Flamme, A. C. Comparing methods for ex vivo characterization of human monocyte phenotypes and in vitro responses. Immunobiology 2015, 220, 1305-1310). Cells from bone marrow were obtained disrupting femur and tibia as explained elsewhere too (Liu, X. & Quan, N. Immune Cell Isolation from Mouse Femur Bone Marrow. Bio-protocol 5, 2015). Monocytes and neutrophils from bone marrow were purified using the Stemcell kits (19861 and 19762 subsequently) and the kit protocol was followed. Cells were incubated in 96-well tissue culture plates (4×10^5/well for primary cells and 1×10^5 for cells lines) at 37° C. in 5% CO2 in complete culture medium using 55 μM of different Peripherin peptides. For proliferation assays, cells were labelled with CFSE (C34554, life technologies). After 1 hour, 24 hours or 48 hours, cells were analysed by flow cytometry and culture supernatants stored at −80° C. until use.
as §1

CC[C@H](C)[C@H](NC(=O)[C@H](CCC(=O)O)NC(=O)[C@@H](NC(=O)[C@H](CC(=O)O)NC(=O)[C@H](CC(C)C)NC(=O)[C@H](C)NC(=O)[C@H](CCSC)NC(=O)[C@H](CCCCN)NC(=O)[C@@H](NC(=O)[C@H](CC(N)=O)NC(=O)[C@H](CC(C)C)NC(=O)[C@@H](N)CC(C)C)C(C)C)[C@@H](C)CC)C(=O)N[C@@H](C)C(=O)N[C@H](C(=O)N[C@@H](Cc1ccc(O)cc1)C(=O)N[C@@H](CCCNC(=N)N)C(=O)N[C@@H](CCCCN)C(=O)N[C@@H](CC(C)C)C(=O)N[C@@H](CC(C)C)C(=O)N[C@@H](CCC(=O)O)C(=O)O)[C@@H](C)O [DIF-P]
cell death (FIG. 2) (mouse splenocytes): cell death
secretion of pro-inflammatory cytokines ([1]; 24 or 48 hours): induce secretion of pro-inflammatory cytokines
production of pro-inflammatory cytokines (comparison between peptides) ([1]; leukocytes that remain alive at the end of the culture): significant production of pro-inflammatory cytokines
induction of apoptosis and/or pyroptosis ([2]; 55 μM): induce apoptosis and/or pyroptosis
cell death by apoptosis (comparison between peptides) ([2]; Caspase-3 after 1 hour): less cell death by apoptosis compared to peptides DIF-P3K or DIF-P8R
leukocyte proliferation [3]: does not stimulate leukocyte proliferation
release of TNF-α ([4]; NOD.RAG-2−/− splenocytes): more efficient at inducing release of TNF-α
production of pro-inflammatory cytokines (FIG. 1) ([4]; mouse splenocytes (NOD.RAG-2−/− and NOD)): ability to induce the production of pro-inflammatory cytokines
